Results as given in patent US20050214898A1, “Methods of carotenoid production in bacteria” (priority 2004, published 2005).

Tested on: F. multivorum
Experiment: Effect of TCA cycle intermediates in the growth medium on zeaxanthin production
Assay type: cell-based, Flavobacterium multivorum
Conditions: growth medium supplemented with TCA intermediate
Protocol: Pigment extraction from bacterial cells. One ml of culture broth was centrifuged at 5000 rpm for 10 min at 4° C. The supernatant was discarded and media components of the cell pellet were washed away by repeated suspension in sterile distilled water and centrifugation. The cell mass was subjected to sonication using a sonic dismembrator (Fisher Scientific, Model number F60) in the presence of 1 ml cold, oxygen-free methanol containing 0.01% butylated hydroxy toluene (BHT) (w/v) for 30 seconds (output power 5). Methanol extraction was repeated for complete extraction of carotenoids. The sonicated sample was centrifuged to remove the white cell pellet. The supernatant contains extracted carotenoids.
High performance liquid chromatography (HPLC). The pigments in methanol were dried by vacuum evaporation in a Speedvac Plus (SC 110, Savant) and re-dissolved in one ml of HPLC mobile phase (hexane: dichloromethane: methanol: N,N′-di-isopropylethylamine (80:19.2:0.7:0.1 v/v)). HPLC separation was carried out at a flow rate of 1.0 ml min^−1 on a cyano column (Microsorb 25 cm length×4.6 mm id, Rainin Instrument Co. Woburn, Mass., U.S.A.). The column was maintained at room temperature and the HPLC detector was operated at 450 nm.
Media optimization for zeaxanthin production.

## α-ketoglutarate
  effect on the volumetric production of zeaxanthin: maximum stimulatory effect
